# PMC3404744 (Molecular Pharmaceutics, 2011)
# Target: T1, UGT1A9 (Homo sapiens, UniProt O60656)
# T1 sequence (O60656 26-530): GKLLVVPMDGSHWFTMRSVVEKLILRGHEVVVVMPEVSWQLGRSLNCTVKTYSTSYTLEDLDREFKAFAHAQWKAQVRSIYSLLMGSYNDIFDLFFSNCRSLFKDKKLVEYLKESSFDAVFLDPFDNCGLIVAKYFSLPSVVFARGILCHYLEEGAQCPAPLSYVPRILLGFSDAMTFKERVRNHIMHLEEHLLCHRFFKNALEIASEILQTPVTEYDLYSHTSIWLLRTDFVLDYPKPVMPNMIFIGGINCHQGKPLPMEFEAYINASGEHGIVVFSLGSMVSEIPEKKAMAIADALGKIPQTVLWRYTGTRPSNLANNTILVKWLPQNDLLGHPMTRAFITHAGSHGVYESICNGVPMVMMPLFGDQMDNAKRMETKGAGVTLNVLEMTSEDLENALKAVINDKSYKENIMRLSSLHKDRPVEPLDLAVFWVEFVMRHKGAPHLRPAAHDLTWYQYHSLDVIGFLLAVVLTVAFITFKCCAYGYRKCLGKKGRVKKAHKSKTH
# Assay: Glucuronidation kinetics with recombinant human UGT1A9
# Format: in vitro ADME
structure (smiles),measurement,setting,value
"CCc1c2c(nc3ccc(O)cc13)-c1cc3c(c(=O)n1C2)COC(=O)[C@]3(O)CC [SN-38, 7-ethyl-10-hydroxycamptothecin]",Glucuronidation activity of recombinant UGT1A9,10 μM,10 ± 0.8 pmol/min/mg protein
same,Activity of recombinant UGT1A9 at lower concentrations,0.625-5 μM,no measurable activity
